Measurements reported in ChEMBL document CHEMBL4020814, “Synthesis, Binding Mode, and Antihyperglycemic Activity of Potent and Selective (5-Imidazol-2-yl-4-phenylpyrimidin-2-yl)[2-(2-pyridylamino)ethyl]amine Inhibitors of Glycogen Synthase Kinase 3” (J Med Chem, 2017).

Sequences of proteins named here, by UniProt entry; tags and fusion partners are left off. A change or cut given only in a name is not applied to a line headed by its entry.
UniProt P49841: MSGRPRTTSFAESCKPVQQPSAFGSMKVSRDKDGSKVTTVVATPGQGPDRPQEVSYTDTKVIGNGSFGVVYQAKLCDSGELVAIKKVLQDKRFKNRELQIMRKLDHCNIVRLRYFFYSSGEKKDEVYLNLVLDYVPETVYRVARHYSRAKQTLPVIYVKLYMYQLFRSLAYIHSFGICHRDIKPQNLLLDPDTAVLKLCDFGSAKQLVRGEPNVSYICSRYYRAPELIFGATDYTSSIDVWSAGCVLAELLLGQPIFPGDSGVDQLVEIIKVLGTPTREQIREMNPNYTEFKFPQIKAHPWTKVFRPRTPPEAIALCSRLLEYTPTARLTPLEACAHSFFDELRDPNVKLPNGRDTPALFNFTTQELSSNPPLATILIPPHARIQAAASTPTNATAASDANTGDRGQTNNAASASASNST

Molecular target: Glycogen synthase kinase-3 beta (Homo sapiens, UniProt P49841)
Test: Inhibition of GSK3beta (unknown origin)

An IC50 of 200 nM was found for `O=C1Nc2ccccc2/C1=C1/Nc2ccccc2/C1=N\O` in this work.
